## Yeast mating assay 2: variants of the scFv Ab-91

All variants were tested on one target, the spike HR2 peptide PDVDLGDISGINAS (SARS-CoV-2).

Parent scFv Ab-91: VL joined to VH by the linker GGGGSGGGGSGGGGS. Changes lie in the heavy chain CDRs alone.
VL: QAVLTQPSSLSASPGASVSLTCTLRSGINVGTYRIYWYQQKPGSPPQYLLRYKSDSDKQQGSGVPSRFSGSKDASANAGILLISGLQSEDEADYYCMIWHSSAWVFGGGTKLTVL
VH: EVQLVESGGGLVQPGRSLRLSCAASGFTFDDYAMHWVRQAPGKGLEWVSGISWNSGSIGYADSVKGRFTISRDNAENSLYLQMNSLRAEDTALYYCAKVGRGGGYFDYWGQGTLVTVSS

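The parent was found by panning a naive human phage display library on the peptide. Variants in AAYL51 differ from the parent at up to three CDR positions; double and triple changes were sampled at random. Affinity was read by AlphaSeq, a pooled yeast mating assay with surface-displayed partners. Binding brings cells together so that they mate, and sequencing counts the barcode pairs among the diploids. Read counts were normalised to the haploid input and turned into Kd by a linear fit to BCL2-family pairs of known affinity, for each replicate. Each pool was mated in three replicate cultures.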

The parent's heavy chain CDRs are GFTFDDYAMH, GISWNSGSIGYADSVK, VGRGGGYFDY; each variant's own CDRs replace them letter for letter.
Values are log10 of the apparent Kd in nM; lower means stronger binding.
"n.d." means that the variant was in the library but no mating with the target was seen in that replicate; the authors take this as a sign of poor binding, and no number exists.
Three control strains display no target. For library AAYL51, 21% of the pairings with them gave a signal, with a median of 4.54 and one signal in twenty below 3.26, so weak values seen in few replicates may be background. Also given: how often the same scFv was detected with the empty control strains, with their mean in brackets.

| CDR-H1 | CDR-H2 | CDR-H3 | log10 Kd, replicates | signal with controls |
|---|---|---|---|---|
| GFTFDDYVMC | GISWNSGSIGYATSVK | VGRGGGYFDY | n.d. / n.d. / n.d. | 0/9 |
| GFTFDDYAMH | GISWNSGSQGYADSVF | VGRGGGYFDW | 1.95 / 1.94 / 1.74 | 4/9 (4.60) |
| GFTADDYAMH | GFSWNSGSIGYADSVK | VGRGGGYFSY | n.d. / n.d. / n.d. | 0/9 |
| GFTFDDYAMH | GISWNSGSIDYADSVK | CRRGGGYFDY | 5.48 / 4.31 / 5.12 | 5/9 (3.98) |
| GFTFDVYAPH | GISWNSGSIGYADSVK | LGRGGGYFDY | 5.45 / 6.54 / 4.59 | 7/9 (4.90) |
| GFTFFDYAMA | GPSWNSGSIGYADSVK | VGRGGGYFDY | n.d. / n.d. / n.d. | 2/9 (4.12) |
| GFTFDDYAMH | GWSWASGSIGYADSVH | VGRGGGYFDY | n.d. / n.d. / n.d. | 2/9 (4.84) |
| GFTFDDYAMH | GISWNSGSIGSDDSVK | RGRGGGYFDY | n.d. / n.d. / 4.19 | 0/9 |
| GFTFDDYAMH | AIGWNSGSIGYADSPK | VGRGGGYFDY | 3.96 / 4.34 / n.d. | 4/9 (4.80) |
| GATFDDYAMH | GISWNSGSIGYAFSVK | VGRGGVYFDY | n.d. / n.d. / n.d. | 0/9 |
| GFTFDDYAMH | GISWNSGSIGYADSVK | VGRPKGYFDY | 4.19 / n.d. / n.d. | 3/9 (4.94) |
| AFTFDDYAMH | GISWNSGSIPYADSVK | VGRRGGYFDY | n.d. / n.d. / n.d. | 0/9 |
| GFTFDDYAMH | GISWNSGSITWADSVK | VGRGGMYFDY | n.d. / n.d. / n.d. | 0/9 |
| GFTFDDYAMH | GISWNNGSIDYADSEK | VGRGGGYFDY | n.d. / 4.61 / 4.98 | 5/9 (4.97) |
| GFTFPDYAMH | GISWNDGSINYADSVK | VGRGGGYFDY | 4.89 / 5.33 / n.d. | 3/9 (4.57) |
| EFTFDDYAMH | IISWNSGSIGYADSVK | VGRGGGYVDY | n.d. / n.d. / n.d. | 0/9 |
| AFTFDDYAMH | GISWNSGSVGYADSVK | VGLGGGYFDY | 3.17 / 2.98 / 3.23 | 4/9 (4.87) |
| GFTKDDYWMH | GCSWNSGSIGYADSVK | VGRGGGYFDY | 4.65 / n.d. / n.d. | 3/9 (4.99) |
| GFYFDDYAMH | GISWNSGSIGYASSVK | VFRGGGYFDY | n.d. / n.d. / n.d. | 0/9 |
| GFTFDDYAMH | GISWNSGSMGYADSVK | DGRGGGYFLY | 3.98 / 4.35 / 4.34 | 5/9 (4.53) |
| GFTFDAYAMH | GISWNSGSIGYADSVK | VGRGGPYFDY | n.d. / n.d. / 4.73 | 6/9 (4.29) |
| GFTFMDYAMH | GISWNSGSISYADSVK | VGRGGGYIDY | 6.65 / 5.22 / 5.79 | 4/9 (5.48) |
| GFMFDDYAMH | GHSWNSGSGGYADSVK | VGRGGGYFDY | 4.62 / n.d. / n.d. | 4/9 (5.01) |
| GFTFDDYAMH | GISWNSGQIGYADSVK | HGRAGGYFDY | n.d. / n.d. / n.d. | 0/9 |
| GFTPDDYAMH | GISWNSGCSGYADSVK | VGRGGGYFDY | n.d. / n.d. / n.d. | 0/9 |
| GFTFDDYAMH | CISRNSGSIGYADSVK | VGRTGGYFDY | n.d. / n.d. / n.d. | 2/9 (3.59) |
| GFTFDEYAMH | GSSWNSGSIGYADSVK | VGRGGGWFDY | n.d. / n.d. / n.d. | 1/9 (3.76) |
| GFTYDDYAMH | GISWNSGCIGYADSVK | VGRRGGYFDY | n.d. / n.d. / n.d. | 2/9 (4.48) |
| GFTFDDYAMH | GHSWNSGSIGYADSVK | VGRGGGYFDK | 6.73 / 4.60 / n.d. | 3/9 (5.00) |
| WFTFDDYAMH | GISWNSGSIGYADSVK | VGHGGPYFDY | 2.77 / n.d. / n.d. | 1/9 (3.34) |
| GFTFDDYQMH | GISWNRGSIGYADSVK | VGRGGCYFDY | n.d. / n.d. / n.d. | 1/9 (3.51) |
| GFNFDDYAMH | GISWYSGSIGYADSVK | VGRGGWYFDY | n.d. / n.d. / n.d. | 0/9 |

From the list, the first 3 with no signal in any replicate:

CDR-H1,CDR-H2,CDR-H3,"log10 Kd, replicates",signal with controls
GFTFDDYVMC,GISWNSGSIGYATSVK,VGRGGGYFDY,n.d. / n.d. / n.d.,0/9
GFTADDYAMH,GFSWNSGSIGYADSVK,VGRGGGYFSY,n.d. / n.d. / n.d.,0/9
GFTFFDYAMA,GPSWNSGSIGYADSVK,VGRGGGYFDY,n.d. / n.d. / n.d.,2/9 (4.12)

Reference: Engelhart et al. 2022, doi:10.1038/s41597-022-01779-4. File: FLAb, binding data.